Laboratory results taken from PubChem BioAssay AID588855 (National Center for Advancing Translational Sciences (NCATS), 2011).
This is a selection; strong and weak results do not stand in their true shares. Records with an inconclusive call do not appear. Activity calls are given as the source filed them. The call rests on the fitted dose curve; in most records, active means well fitted inhibition curve with a large enough effect; inconclusive means small, poorly fitted or top-dose-only effect; inactive means no such curve, though single readings can be large or run the other way.

Assay: qHTS for Inhibitors of TGF-b; further: nearly all actives have a fitted effect of over 65% in size
Conditions: HepG2 CAGA-GFP TGF-b/SMAD3 reporter, GFP fluorescence, 18 h, TGF-beta stimulated, 500 pg/mL final; series mostly up to 46.1 µM; activity, negative = inhibition: at the top concentration
On the % scale 0 is the no-effect control and ±100 the full control effect; potency means the concentration at half of the fitted maximal effect.

Q: Which “activity, negative = inhibition” value does the source give for `Oc1ccccc1CNc1ccccn1` here?
A: inactive: -1.02%

Q: With `O=C(NC(Sc1ccncn1)C(Cl)(Cl)Cl)c1ccccc1` (configuration not stated) as the molecule, how does the “activity, negative = inhibition” value read?
A: inactive: 0.764%

Q: With `CC(C)CC(=O)NC(Sc1ccc(Cl)cc1)C(Cl)(Cl)Cl` (configuration not stated) as the molecule, how does the “activity, negative = inhibition” value read?
A: inactive: 0.0906%

Q: With `Nc1cc(N)c2nonc2c1[N+](=O)[O-]` as the molecule, how does the “activity, negative = inhibition” value read?
A: inactive: 10.2%

Q: With `O=[N+]([O-])C1C(O)C(O)C([N+](=O)[O-])C(O)C1O` (configuration not stated) as the molecule, how does the “activity, negative = inhibition” value read?
A: inactive: 2.14%

Q: With `O=P1(Nc2nc3ccc(Cl)cc3s2)COc2ccccc2O1` (configuration not stated) as the molecule, how does the “activity, negative = inhibition” value read?
A: inactive: -3.07%

Q: For `CCOc1ccc(C2=NCC(CBr)S2)cc1` (configuration not stated), which “activity, negative = inhibition” value is on record?
A: inactive: -4.28%

Q: Which “activity, negative = inhibition” value does the source give for `CCc1cc(O)c([N+](=O)[O-])c(C)c1[N+](=O)[O-]` here?
A: inactive: 6.43%

Q: With `Cc1ccccc1CN(C)C(=O)COC(=O)C(O)(c1ccccc1)c1ccccc1` as the molecule, how does the “activity, negative = inhibition” value read?
A: inactive: -8.51%

Q: With `C[C@@H]1C=CCP(=O)(Oc2ccccc2)O1` (some centres not stated) as the molecule, how does the “activity, negative = inhibition” value read?
A: inactive: -3.38%

Q: Which “activity, negative = inhibition” value does the source give for `C[C@H]1OP(=O)(Oc2ccccc2)C[C@@H]2O[C@@H]21` (some centres not stated) here?
A: inactive: 10.2%

Q: Which “activity, negative = inhibition” value does the source give for `CC(=O)c1ccc(N2CC2c2ccncc2)cc1` (configuration not stated) here?
A: inactive: 0%

Q: Which “activity, negative = inhibition” value does the source give for `COC(=O)C1(C)COP(=O)(NCc2ccccc2)OC1` (configuration not stated) here?
A: inactive: -7.79%

Q: For `CC(=O)Nc1ccc([As](=O)(O)O)c(O)c1`, which “activity, negative = inhibition” value is on record?
A: inactive: 0%

Q: For `CC(=O)Nc1ccc(Oc2c([N+](=O)[O-])cc([N+](=O)[O-])cc2[N+](=O)[O-])cc1`, which “activity, negative = inhibition” value is on record?
A: inactive: -5.34%

Q: Which “activity, negative = inhibition” value does the source give for `c1ccc(-c2nn[nH]n2)c(-c2nn[nH]n2)c1` here?
A: inactive: 17%

Q: With `O=[N+]([O-])c1cc([N+](=O)[O-])c2nc[nH]c2c1` as the molecule, how does the “activity, negative = inhibition” value read?
A: inactive: -11.4%

Q: With `Cc1ccc(NP(=O)(Oc2cccc(C)c2)Oc2cccc(C)c2)nc1` as the molecule, how does the “activity, negative = inhibition” value read?
A: inactive: 0%

Q: For `O=C(NC1CCS(=O)(=O)C1)NP(=S)(Oc1ccccc1)Oc1ccccc1` (configuration not stated), which “activity, negative = inhibition” value is on record?
A: inactive: 3.6%

Q: For `CCNC(=S)/N=C(\N)N[N+](=O)[O-]`, which “activity, negative = inhibition” value is on record?
A: inactive: -1.56%

Q: For `O=P1(N(CCCl)CCCl)OCCC2CCCCN21` (configuration not stated), which “activity, negative = inhibition” value is on record?
A: inactive: -7.27%

Q: Which “activity, negative = inhibition” value does the source give for `O=C(OC1CN2CCC1CC2)c1ccccc1` (configuration not stated) here?
A: inactive: 45.3%

Q: With `CCC(=O)N1C2C3N(C(=O)CC)C1C1N(C(=O)CC)C(C(N1C(=O)CC)N3C(=O)CC)N2C(=O)CC` as the molecule, how does the “activity, negative = inhibition” value read?
A: inactive: -27%

Q: With `COC(=O)c1cc2c(s1)N=C(c1ccccc1)N(C)P2(=O)N1CCOCC1` (configuration not stated) as the molecule, how does the “activity, negative = inhibition” value read?
A: inactive: -10.2%

Q: For `CC(=O)NC(SC(=S)N(CC(C)C)CC(C)C)C(Cl)(Cl)Cl` (configuration not stated), which “activity, negative = inhibition” value is on record?
A: inactive: -8.28%

Q: Which “activity, negative = inhibition” value does the source give for `Cc1ccccc1OP(=O)(Nc1ccccn1)Oc1ccccc1C` here?
A: inactive: -19.9%

Q: With `CC(NC(=O)COC(=O)C(O)(c1ccccc1)c1ccccc1)c1ccccc1` (configuration not stated) as the molecule, how does the “activity, negative = inhibition” value read?
A: inactive: -13.2%

Q: For `CN(C)C(=O)Oc1noc2ccccc12`, which “activity, negative = inhibition” value is on record?
A: inactive: 11.8%

Q: Which Potency does the source give for `O=c1c2cc([N+](=O)[O-])ccc2[nH]c2c([N+](=O)[O-])cc([N+](=O)[O-])cc12` here?
A: active: 3.55 µM

Q: For `CN(C)C1(CNC(=O)c2ccc(Cl)c(S(N)(=O)=O)c2)CCCCC1`, which “activity, negative = inhibition” value is on record?
A: inactive: -2.82%

Q: For `COc1ccc(N)c([N+](=O)[O-])c1[N+](=O)[O-]`, which “activity, negative = inhibition” value is on record?
A: inactive: -1.1%

Q: Which “activity, negative = inhibition” value does the source give for `O=P(Nc1nc2ccccc2s1)(c1ccccc1)c1ccccc1` here?
A: inactive: 6.06%

Q: For `C[C@H]1OP(=O)(Oc2ccccc2)[C@H](O)[C@H](O)[C@H]1N=[N+]=[N-]` (some centres not stated), which “activity, negative = inhibition” value is on record?
A: inactive: -38.6%

Q: For `O=[As](O)(c1ccccc1)c1ccc(O)cc1`, which “activity, negative = inhibition” value is on record?
A: inactive: 12.4%

Q: For `O=[N+]([O-])c1ncn(CCn2cnc([N+](=O)[O-])n2)n1`, which “activity, negative = inhibition” value is on record?
A: inactive: 3.45%

Q: With `CC(=O)NC(SC(=S)N(C)C)C(Cl)(Cl)Cl` (configuration not stated) as the molecule, how does the Potency read?
A: active: 5.01 µM

Q: With `O=C(OC1CN2CCC1CC2)c1cccc(Cl)c1` (configuration not stated) as the molecule, how does the “activity, negative = inhibition” value read?
A: inactive: -16.5%

Q: With `Nc1ccc([As](=O)(O)c2ccc([N+](=O)[O-])cc2)cc1` as the molecule, how does the “activity, negative = inhibition” value read?
A: inactive: -2.91%

Q: With `C(Cc1nn[nH]n1)Cc1nn[nH]n1` as the molecule, how does the “activity, negative = inhibition” value read?
A: inactive: -16.6%

Q: With `O=P(Nc1nccs1)(c1ccccc1)c1ccccc1` as the molecule, how does the “activity, negative = inhibition” value read?
A: inactive: 6.65%

Q: For `CC(C)C(=O)NC(Sc1ccccc1)C(Cl)(Cl)Cl` (configuration not stated), which “activity, negative = inhibition” value is on record?
A: inactive: 6%

Q: Which “activity, negative = inhibition” value does the source give for `c1nnnn1CCn1cnnn1` here?
A: inactive: -8.46%
